Here are results for 1 protein from PMC8924070.

This data set is described as follows: FACS, PD-1-His staining of PD-L1-expressing 293T cells. The following applies: glycan lost; control: PD-1-WT-His.

B1: PD-1: PD-1-N58A (protein)
parent chain: MQIPQAPWPVVWAVLQLGWRPGWFLDSPDRPWNPPTFSPALLVVTEGDNATFTCSFSNTSESFVLNWYRMSPSNQTDKLAAFPEDRSQPGQDCRFRVTQLPNGRDFHMSVVRARRNDSGTYLCGAISLAPKAQIKESLRAELRVTERRAEVPTAHPSPSPRPAGQFQTLVVGVVGGLLGSLVLLVWVLAVICSRAARGTIGARRTGQPLKEDPSAVPVFSVDYGELDFQWREKTPEPPVPCVPEQTEYATIVFPSGMGTSSPARRGSADGPRSAQPLRPEDGHCSWPL
B1: the “other: antibody blocking of PD-1/PD-L1 binding” value is “decreases”.
